The text below walks through data of patent US12128098B2, “Non-specific delayed-type hypersensitivity response to treat herpes simplex virus infection” (Squarex, LLC, priority 2015, dated 2024).

A short description of the assay: Presensitization and dose finding with DNCB solutions on the forearm (rash / erythema, DTH response). To be noted: 0.2% DNCB solution on forearm. Format: in vivo, human. An excerpt:
The subject was presensitized to DNCB by dipping a cotton-tipped swab in a 2% DNCB solution in acetone, and contacting the cotton-tipped swab with two spots on the forearm. […] Two weeks later, the subject again applied a 2% DNCB solution to their forearm at two small spots different from where the sensitizing dose had been applied. […] The subject then applied a 0.1%, 0.2%, and 0.3% solutions to separate small spots on the forearm.

Turning to `O=[N+]([O-])c1ccc(Cl)c([N+](=O)[O-])c1` [DNCB, 1-chloro-2,4-dinitrobenzene], the duration of erythema entry is given as “about 3 days” and the “onset of erythema after applying the solution” value was found to be 2 days.
